TDP1 inh = inhibitors of human tyrosyl-DNA phosphodiesterase TDP1; 350,000 compounds, 0.28% hits; Potency, µM (highest dose often 130 µM), without a hit: at the top dose activity change, negative = inhibition, most hits filed as inhibitors; recombinant TDP1, AlphaScreen DNA substrate cleavage; Q9NUW8; note: potency is the fitted concentration of half-maximal effect; % is set by controls: 0 for no effect and ±100 for the full control effect; nearly all actives have a fitted effect of over 40% in size
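Enzyme-compound mixtures sat 15 min at room temperature, followed by a 5 min reaction with 15 nM final substrate and 10 min with AlphaScreen beads. Recombinant human Tdp1 was used at 1 nM final.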
TDP1 cell noCPT = qHTS for Inhibitors of human tyrosyl-DNA phosphodiesterase 1 (TDP1): qHTS in cells in absence of CPT; DT40 Tdp1-/- hTDP1 cells, no CPT, ATP luminescence, 48 h; Potency, µM (titrated, usually from 46.2 µM), inactives show at the top dose activity change, negative = growth inhibition, actives largely listed as inhibitors; 420,000 compounds, 15% hits; AID 686978, 2013; note: potency is the fitted concentration of half-maximal effect; % is set by controls: 0 for no effect and ±100 for the full control effect; nearly all actives have a fitted effect of over 55% in size
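DT40 Tdp1-/-;hTDP1 cells, no CPT (DMSO vehicle only), 400 cells/well; compounds pin-transferred; ≥48 hr, 37 °C; CellTiter-Glo 30 min RT dark, luminescence read.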
miR-21 reporter = miR-21 reporter, rising signal. HeLa miR-21 FLuc reporter, luciferase, 48 h. Potency, µM (titrated, usually from 38.3 µM), without a hit: at the top dose reporter change, positive = more light. 340,000 tested, under 10 active. AID 2288; active = well fitted rising curve with a large enough effect; inconclusive = small, poorly fitted or top-dose-only effect; inactive = no such curve, though single readings can be large or run the other way;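 also: % of control where 0% means no effect; miR-21 action dims this reporter so a rising signal means less miR-21 action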
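HeLa cells endogenously expressing miR-21, stably carrying CMV-driven firefly luciferase with a downstream miR-21 binding site, 2000 cells/well. Titrations up to approximately 40 uM, 48 hours; luciferase luminescence read.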
TDP1 cell CPT = DT40-hTDP1 cell growth loss with CPT. Potency, µM (doses to about 46.2 µM), for inactives: top-dose activity change, negative = growth inhibition, usual class: inhibitors. chicken DT40 Tdp1-/-;hTDP1 cells + 20 nM CPT, ATP luminescence, 48 h. 420,000 compounds, 12% hits; note: potency is the fitted concentration of half-maximal effect; % is set by controls: 0 for no effect and ±100 for the full control effect; nearly all actives have a fitted effect of over 55% in size
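Chicken DT40 Tdp1-/- cells complemented with human TDP1, 400 cells/well, exposed to compounds plus 20 nM camptothecin for at least 48 h at 37 C; viability read as ATP content by CellTiter-Glo luminescence.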
uPA generation = cell surface uPA generation inhibition | Potency, µM (titrated, usually from 38.3 µM), inactives show at the top dose activity change, negative = inhibition, actives largely listed as inhibitors | cell surface uPA generation assay, qHTS | 330,000 compounds, 0.31% hits; active = well fitted inhibition curve with a large enough effect; inconclusive = small, poorly fitted or top-dose-only effect; inactive = no such curve, though single readings can be large or run the other way; tested in mouse RAW 264.7 cells; note: potency is the fitted concentration of half-maximal effect; % is set by controls: 0 for no effect and ±100 for the full control effect; nearly all actives have a fitted effect of over 55% in size
* hit, by the source's call; ? = inconclusive; . = no result given; [ ] = dose if it differs, or a comment. This is a sample that favours compounds with a hit; in the whole collection about 16% have one here. Unless noted, calls come from the whole dose curve; as a rule, active = well fitted curve in the direction sought with a large enough effect; inconclusive = small, poorly fitted or top-dose-only effect, or another doubt; inactive = no such curve, though single readings can be large; an effect the other way counts as inactive or inconclusive.

#1 CCN1C(=O)[C@H]2[C@@H](c3ccc(OC)cc3)N[C@]3(CCCN(Cc4ccc(C)cc4)C3=O)[C@H]2C1=O
#2 CCN1C(=O)[C@H]2[C@@H](c3ccc(C(F)(F)F)cc3)N[C@]3(CCCN(Cc4ccco4)C3=O)[C@H]2C1=O
#3 CCN1C(=O)[C@H]2[C@@H](c3ccc(OC)cc3)N[C@]3(CCCN(Cc4ccc(OC)cc4)C3=O)[C@H]2C1=O
#4 CCN1C(=O)[C@H]2[C@@H](c3ccc(C)cc3)N[C@]3(CCCN(Cc4ccc(C)cc4)C3=O)[C@H]2C1=O
#5 CCN1C(=O)[C@H]2[C@@H](c3ccc(C)cc3)N[C@]3(CCCN(Cc4ccc(Cl)cc4)C3=O)[C@H]2C1=O
#6 CCN1C(=O)[C@H]2[C@@H](c3ccc(C(F)(F)F)cc3)N[C@]3(CCCN(Cc4ccc(Cl)cc4)C3=O)[C@H]2C1=O
#7 Cc1ccc(-c2c(C#N)c(N)n(-c3ccccc3)c(=O)c2C#N)cc1
#8 CCN(CC)C(=O)/C(=C\c1ccncc1)NC(=O)c1ccccc1
#9 Oc1[nH]c2ccc(Br)cc2c1N=NC(=S)NCC1CCCO1 (configuration not stated)
#10 Oc1[nH]c2c(Cl)cc(Cl)cc2c1N=NC(=S)NCC1CCCO1 (configuration not stated)
Screen / compound no.,1,2,3,4,5,6,7,8,9,10
TDP1 inh,.,.,.,.,.,.,3%,2%,13%,7%
uPA generation,.,.,.,.,.,.,3%,-5%,-2%,-15%
TDP1 cell noCPT,?,16µM*,-10%,3%,21µM*,18µM*,-1%,3%,?,4.6µM*
TDP1 cell CPT,-11%,23µM*,-10%,?,?,18µM*,-14%,2%,?,3.7µM*
miR-21 reporter,.,.,.,.,.,.,-4%,-4%,0%,-5%

#11 Cc1cc(C)c2[nH]c(O)c(N=NC(=S)NCC3CCCO3)c2c1 (configuration not stated)
#12 CCn1c(=O)cc(SCC(=O)NCC2CCCO2)c2ccccc21 (configuration not stated)
#13 Oc1[nH]c2ccccc2c1N=NC(=S)NCC1CCCO1 (configuration not stated)
#14 CCn1c(O)c(N=NC(=S)NCC2CCCO2)c2ccccc21 (configuration not stated)
#15 O=C(/C=C/c1ccccc1)OCC(=O)N1CCN(c2ccccc2)CC1
#16 CC[C@@]1(C(=O)OC)N[C@H](CN(C)C(=O)Nc2ccccc2)[C@@H]2C(=O)N(C)C(=O)[C@@H]21
#17 Nc1c(Cl)ncnc1NCc1cccnc1
#18 Nc1c(Cl)ncnc1NCCc1ccc(O)cc1
#19 COc1ccccc1CNC(=S)NCc1ccc(Cl)cc1
#20 CCOC(=O)c1nc2cc3n(c(C)c-2c1C)C(C)C(C)=C3C (configuration not stated)
Screen / compound no.,11,12,13,14,15,16,17,18,19,20
TDP1 inh,7%,6%,3%,5%,-8%,1%,.,.,4%[56.1 µM],2%
uPA generation,-8%,-10%,-5%,?,2%,-27%,-1%,-5%,9%,-9%
TDP1 cell noCPT,6.5µM*,1%,?,9.2µM*,-6%,10%,?,5.8µM*,?,13µM*
TDP1 cell CPT,6.5µM*,0%,?,13µM*,2%,-3%,-12%,13µM*,?,?
miR-21 reporter,2%,0%,-21%,16%,.,.,0%,22%,-3%,-9%

#21 CCOC(=O)c1nnc2cc(C)nn2c1C
#22 CCOC(=O)c1nc2cc3n(c(CC(C)C)c-2c1C)CC(C)=C3C
#23 CCOC(=O)c1n[nH]n(-c2cc(Cl)cc(Cl)c2)c1=O
#24 O=C(CCS(=O)(=O)c1ccc(F)cc1)N1CCOCC1
#25 COc1ccc(S(=O)(=O)N2CCc3ccccc32)cc1C(=O)Nc1cccnc1
#26 Cc1cc(N2CCN(C/C=C/c3ccccc3)CC2)n2ncnc2n1
#27 Cc1cc(N2CCN(c3ccccc3)CC2)n2ncnc2n1
#28 COc1ccc(-c2ccc(OC)c([C@H]3[C@H]4C=CC[C@@H](C)[C@@H]4C(=O)N3Cc3ccccc3)c2)cc1C
#29 COc1ccc(-c2cc3ccccc3s2)cc1[C@H]1[C@H]2C=CC[C@@H](C)[C@@H]2C(=O)N1Cc1ccccc1
#30 COc1ccc(-c2ccc(N(C)C)cc2)cc1[C@H]1[C@H]2C=CC[C@@H](C)[C@@H]2C(=O)N1Cc1ccccc1
Screen / compound no.,21,22,23,24,25,26,27,28,29,30
TDP1 inh,.,0%,0%,.,1%,-5%,-2%,2%,-1%,8%
uPA generation,5%,-3%,1%,4%,-2%,-9%,3%,18%,9%,6%
TDP1 cell noCPT,-2%,?,-4%,23%,-14%,10µM*,?,10µM*,18µM*,8.2µM*
TDP1 cell CPT,8%,21µM*,1%,4%,6%,16µM*,-22%,?,?,12µM*
miR-21 reporter,-1%,-5%,1%,-26%,5%,5%,4%,-8%,-38%,-1%

Of the compounds above, 3 contain fluorine:
#2 CCN1C(=O)[C@H]2[C@@H](c3ccc(C(F)(F)F)cc3)N[C@]3(CCCN(Cc4ccco4)C3=O)[C@H]2C1=O
#6 CCN1C(=O)[C@H]2[C@@H](c3ccc(C(F)(F)F)cc3)N[C@]3(CCCN(Cc4ccc(Cl)cc4)C3=O)[C@H]2C1=O
#24 O=C(CCS(=O)(=O)c1ccc(F)cc1)N1CCOCC1
Screen / compound no.,2,6,24
TDP1 inh,.,.,.
uPA generation,.,.,4%
TDP1 cell noCPT,16µM*,18µM*,23%
TDP1 cell CPT,23µM*,18µM*,4%
miR-21 reporter,.,.,-26%

Remaining list, next part
#31 COc1ccc(-c2ccc(N(C)C)cc2)cc1C1C2C=CCC(C)C2C(=O)N1Cc1ccccc1 (configuration not stated)
#32 CCCCCCSc1cc(-c2nc3ccc(C)cn3c2NCCCC)ccc1OC
#33 CCCCCCSc1ccc(-c2nc3cnccn3c2NCCCC)cc1
#34 CCCCNc1c(-c2cccc(SC(C)CC)c2)nc2ccc(Cl)cn12 (configuration not stated)
#35 CCCCNc1c(-c2ccc(OC)c(SC(C)CC)c2)nc2cc(C)ccn12 (configuration not stated)
#36 CCCCNc1c(-c2ccc(OC)c(SC(C)CC)c2)nc2ccc(C)cn12 (configuration not stated)
#37 Cc1nc2ccc(NC(=O)NCCCO)cc2s1
#38 CCN(CC)C(=S)Nc1cc(C(=O)OC)ccc1C(=O)OC
#39 COCCNc1c(-c2ccc(O)cc2)nc2ccc(Cl)cn12
#40 CCCCCCSc1cc(-c2nc3ccc(Cl)cn3c2NCCCC)ccc1OC
Screen / compound no.,31,32,33,34,35,36,37,38,39,40
TDP1 inh,24%,2%,-13%,-10%,6%,5%,-2%,0%,2%,-1%
uPA generation,.,14%,-1%,5%,-20%,?,-4%,-6%,-13%,-11%
TDP1 cell noCPT,.,?,21µM*,15µM*,15µM*,18µM*,-12%,-5%,-101%,?
TDP1 cell CPT,.,?,?,16µM*,16µM*,18µM*,-4%,20%,33µM*,?
miR-21 reporter,.,.,.,.,.,.,-11%,-9%,-28%,.

#41 CCCCNc1c(-c2ccc(OC)c(SC(C)CC)c2)nc2cnccn12 (configuration not stated)
#42 CCCCNc1c(-c2ccc(-c3ccc(C(C)=O)cc3)c(OC)c2)nc2cc(C)ccn12
#43 CCCCNc1c(-c2ccc(OC)c(SC(C)CC)c2)nc2ccc(Cl)cn12 (configuration not stated)
#44 CC(Oc1cccc(Cl)c1)C(=O)Nc1ccc([N+](=O)[O-])cn1 (configuration not stated)
Screen / compound no.,41,42,43,44
TDP1 inh,.,0%,0%,4%
uPA generation,-4%,?,1%,0%
TDP1 cell noCPT,26µM*,10µM*,26µM*,-3%
TDP1 cell CPT,?,18µM*,26µM*,-20%
miR-21 reporter,.,.,.,-9%

Screening results (PubChem BioAssay)
